Experimental findings from patent US20230212123A1, “Pyridine Inhibitors of Glucosylceramide Synthase and Therapeutic Methods Using the Same” (THE REGENTS OF THE UNIVERSITY OF MICHIGAN, priority 2020, published 2023) are described below.

Series [1] is described as follows: Pharmacokinetics in mice: plasma and brain drug AUC. Particulars: over 7 hrs following single IP injection at 10 mg/kg. In kind it is in vivo. An excerpt:
The pharmacokinetics of selected compounds of structural formula (I) and structurally-related compounds in the prior art lacking an aromatic nitrogen atom are summarized in Table 3.

Series [2] concerns glucosylceramide (GlcCer) in brain and liver. As to the kind of experiment: Reduction of brain and liver glucosylceramide in CBE mice. The following applies: dose 109 µmol/kg, 14 days, D409V/null mice with CBE 25 mg/kg/day ip. In kind it is in vivo. On the procedure: The in vivo assay measured the reduction in brain and liver glucosylceramide and glucosylsphingosine levels in mice on a D409V background concurrently treated with conduritol B epoxide (CBE), an irreversible inhibitor of GBA (beta-glucocerebrosidase).
Reduction of Brain and Liver Glucosylceramide and Glucosylsphingosine in CBE Mice
The reduction by inhibitors of GCS in brain glucosylceramide and glucosylsphingosine content was determined by the use of mice with Gba 1 mutant alleles, termed D409V/null. These are knock-in mice with a Gba 1 point mutation encoding Valine (V) 409 for the wild type (WT) Aspartate (D) on one missense allele and a null heteroallele [D409V/null (9V/null)]. The D409V/null and WT littermates were of mixed gender and mixed, but matched, genetic backgrounds of C57BL/129Sv/FVB. […] The mice were sacrificed 2 hours following the last injection and tissues including brain, liver, spleen, kidney and lung were analyzed for glucosylceramide and glucosylsphingosine by mass spectrometry. […]
The analysis of neutral glycosphingolipids from mouse liver, kidney, and brain was processed after alkaline methanolysis. […] GlcCer levels were quantified by comparison to known standards.

Regarding “2-(2,3-dihydro-1H-inden-2-yl)-N-((1R,2R)-1-hydroxy-1-(6-methoxypyridin-3-yl)-3-(pyrrolidin-1-yl)propan-2-yl)acetamide [Example 1]”, in series [1], the “Brain AUC/Plasma AUC” value is recorded as 0.11, the “Brain drug AUC” value turned out to be 94 ng·h/g and the “Plasma drug AUC” value stood at 895 ng·h/mL. Further, the “CBE mouse GlcCer reduction in brain” value in series [2] (brain) was 37%. Besides, the “CBE mouse GlcCer reduction in liver” value in series [2] (liver) amounted to 50%.
